Experimental data from ChEMBL document CHEMBL3867477 (Bioorg Med Chem Lett, 2016).

Amino acid sequences for entries named in this document (tags omitted).
UniProt O43614, whole entry: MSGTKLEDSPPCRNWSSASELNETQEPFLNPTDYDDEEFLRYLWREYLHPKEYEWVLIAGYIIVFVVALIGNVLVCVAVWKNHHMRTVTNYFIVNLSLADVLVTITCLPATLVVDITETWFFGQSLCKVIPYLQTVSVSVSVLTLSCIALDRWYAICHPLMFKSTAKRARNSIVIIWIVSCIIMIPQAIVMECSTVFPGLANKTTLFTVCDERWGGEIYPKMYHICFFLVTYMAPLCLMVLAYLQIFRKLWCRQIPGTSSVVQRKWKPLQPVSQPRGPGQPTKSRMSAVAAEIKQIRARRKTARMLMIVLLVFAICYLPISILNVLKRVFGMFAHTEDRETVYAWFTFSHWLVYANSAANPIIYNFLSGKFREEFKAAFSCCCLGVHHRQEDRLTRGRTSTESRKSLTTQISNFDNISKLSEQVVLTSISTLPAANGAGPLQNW

Target: Orexin receptor type 2 (Homo sapiens, UniProt O43614)
Assay: Displacement of (2S)-N-(2-pyrrol-1-ylphenyl)-1-[2-[1-(tritritiomethyl)benzimidazol-2-yl]sulfanylacetyl]pyrrolidine-2-carboxamide from human OX2 receptor expressed on CHO cell membrane measured after 3 hrs by TopCount method
Assay type: cell membranes

`COc1ccc(C[C@H]2c3cc(OC)c(OC)cc3CCN2[C@@H](C(=O)NC(C)C)c2ccccc2)cc1OC` showed a Ki of 0.417 µM.
